## Yeast mating assay 1: variants of the scFv Ab-14

Values reported by Engelhart et al. 2022, doi:10.1038/s41597-022-01779-4 (FLAb copy).

The target is the same throughout: PDVDLGDISGINAS, from the HR2 region of SARS-CoV-2 spike.

The variants keep the heavy chain, the linker and the frameworks of Ab-14 (scFv order VH, the linker GGGGSGGGGSGGGGS, VL).
VH: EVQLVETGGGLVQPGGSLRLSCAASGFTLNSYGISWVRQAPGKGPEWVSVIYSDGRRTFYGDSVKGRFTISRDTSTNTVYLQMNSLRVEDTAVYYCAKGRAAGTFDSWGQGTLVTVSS
VL: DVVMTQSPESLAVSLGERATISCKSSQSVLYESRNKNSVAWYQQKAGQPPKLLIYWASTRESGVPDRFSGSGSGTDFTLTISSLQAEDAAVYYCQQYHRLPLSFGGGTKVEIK

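The starting antibody came from a phage panning campaign against this peptide. In library AAYL50, one, two or three CDR residues were substituted; doubles and triples were drawn at random. The scFvs were displayed on barcoded MATa yeast, the peptide on MATalpha yeast. The frequency of each diploid, read from paired DNA barcodes, reflects how well the two displayed proteins bind. Scores were corrected for input abundance and mapped to Kd with protein pairs of known affinity run in the same pool. The assay was run in three technical replicates.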

Changes read parent residue, position, new residue, counted from the first residue of the VL shown. Every variant below is changed at H98 of the VL (sequential numbering). Values are apparent Kd, the geometric mean of the replicates that gave a signal; lower means stronger binding. Where no diploid with the target was found in any replicate, the entry reads "nd": below detection, most likely a poor binder, though not proof of it.

- S33T A57R H98V -> 31 µM (3 of 3 replicates)
- S38T V39R H98A -> 71 µM (1 of 3 replicates)
- S38I A40G H98Y -> nd (0 of 3 replicates)
- R34Y H98T R99N -> 500 nM (3 of 3 replicates)
- V39S T59R H98F -> 48 µM (1 of 3 replicates)
- S26V Y97N H98L -> 600 nM (3 of 3 replicates)
- V39P H98S -> 15 µM (1 of 3 replicates)
- K36R A57S H98Q -> 20 nM (3 of 3 replicates)
- S38Q H98F -> 3.1 nM (3 of 3 replicates)
- K24C V29P H98P -> 4.0 µM (1 of 3 replicates)
- R60Q E61M H98D -> 6.3 µM (2 of 3 replicates)
- S28Q A57G H98C -> nd (0 of 3 replicates)
- S25K S38I H98W -> nd (0 of 3 replicates)
- V39E S58V H98M -> 1.4 µM (1 of 3 replicates)
- V29L S38K H98F -> nd (0 of 3 replicates)
- Q96F H98M L100F -> nd (0 of 3 replicates)
- Y31E H98G L100R -> 420 nM (1 of 3 replicates)
- A40I S58C H98K -> nd (0 of 3 replicates)
- R60I Q95H H98I -> 1.6 µM (3 of 3 replicates)
- Q27A E32M H98T -> 72 nM (2 of 3 replicates)
- R60T H98S -> 3.4 µM (3 of 3 replicates)
- Q96P H98P R99F -> 8.4 µM (1 of 3 replicates)
- S26G E32L H98N -> 3.9 µM (3 of 3 replicates)
- R34C H98L -> 190 nM (3 of 3 replicates)
- A57T S58V H98I -> 2.3 µM (3 of 3 replicates)
- L30Q N35E H98S -> 6.0 nM (3 of 3 replicates)
- V39M Y97E H98G -> 50 nM (1 of 3 replicates)
- H98S -> 15 nM (3 of 3 replicates)
- Q96L H98N R99I -> nd (0 of 3 replicates)
- S25N K36G H98Y -> 170 nM (3 of 3 replicates)
- H98R S103Q -> 920 nM (3 of 3 replicates)
- V29S W56M H98Q -> nd (0 of 3 replicates)
- Y31D T59L H98K -> 2.4 nM (3 of 3 replicates)
- Q95S H98F L102N -> 29 nM (3 of 3 replicates)
- Q95L Q96W H98D -> nd (0 of 3 replicates)
- Q27M N35C H98G -> 16 nM (3 of 3 replicates)
- R34K S58Y H98P -> nd (0 of 3 replicates)
- N35Q A57S H98M -> 13 nM (3 of 3 replicates)
- K24H N35K H98M -> 9.6 nM (3 of 3 replicates)
- Q27T S33P H98E -> 8.2 nM (3 of 3 replicates)
- Y31A Q95N H98E -> 8.3 µM (1 of 3 replicates)
- L30S Q96E H98E -> 27 nM (3 of 3 replicates)
- N35R N37Y H98M -> 190 nM (1 of 3 replicates)
- S26Q S38W H98E -> nd (0 of 3 replicates)
- K24T H98S S103V -> 260 nM (3 of 3 replicates)

The 4 strongest on average among those seen in every replicate, once more:

changes,Kd (apparent),detected
Y31D T59L H98K,2.4 nM,3/3
S38Q H98F,3.1 nM,3/3
L30Q N35E H98S,6.0 nM,3/3
Q27T S33P H98E,8.2 nM,3/3

As a blank, each scFv also met three strains without target: over library AAYL50, 18% of these pairings were detected, typically at 15 µM and seldom below 970 nM. Parent in this assay: reference entry 4.4 nM, copy in this library 48 nM.